By UniProt entry, the sequences of proteins in these tests, tags left out.
UniProt P40337, whole entry: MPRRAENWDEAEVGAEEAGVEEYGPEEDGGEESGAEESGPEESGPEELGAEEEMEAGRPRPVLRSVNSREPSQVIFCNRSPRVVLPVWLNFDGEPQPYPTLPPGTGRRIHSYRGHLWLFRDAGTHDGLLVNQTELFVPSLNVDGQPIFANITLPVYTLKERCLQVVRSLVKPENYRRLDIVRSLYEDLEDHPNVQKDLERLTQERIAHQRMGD
UniProt O43521, whole entry: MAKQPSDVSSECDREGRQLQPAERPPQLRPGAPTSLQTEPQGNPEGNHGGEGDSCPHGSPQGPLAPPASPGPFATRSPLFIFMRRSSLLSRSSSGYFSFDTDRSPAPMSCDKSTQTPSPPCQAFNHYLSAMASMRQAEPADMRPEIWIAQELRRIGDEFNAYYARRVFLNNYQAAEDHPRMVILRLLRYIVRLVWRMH

In paper PMC2701369:

Target: wild type pVHL stably expressed in WT7 cells (human) (UniProt P40337)
Assay: co-IP

“endogenous BIMEL in WT7 cells (from UniProt O43521-1 1-198) (natural protein; other documents disagree on this pair)” gave a percent of total BIMEL co-immunoprecipitated with pVHL of 2 to 5%.
